This note sets out measurements from article PMC3904085 (2014).

Amino acid sequences for entries named in this document (tags omitted).
UniProt O43613, whole entry: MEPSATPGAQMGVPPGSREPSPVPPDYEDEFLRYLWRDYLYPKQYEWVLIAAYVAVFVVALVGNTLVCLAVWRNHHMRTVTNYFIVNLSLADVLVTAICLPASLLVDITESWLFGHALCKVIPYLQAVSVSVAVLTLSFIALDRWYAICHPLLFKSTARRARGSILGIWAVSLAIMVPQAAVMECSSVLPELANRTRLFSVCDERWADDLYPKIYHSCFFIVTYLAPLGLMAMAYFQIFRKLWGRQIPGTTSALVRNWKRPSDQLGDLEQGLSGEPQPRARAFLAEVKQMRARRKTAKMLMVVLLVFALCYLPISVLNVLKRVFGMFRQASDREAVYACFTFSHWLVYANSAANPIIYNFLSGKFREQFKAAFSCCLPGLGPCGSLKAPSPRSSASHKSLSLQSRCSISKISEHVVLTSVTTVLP
UniProt P56718, whole entry: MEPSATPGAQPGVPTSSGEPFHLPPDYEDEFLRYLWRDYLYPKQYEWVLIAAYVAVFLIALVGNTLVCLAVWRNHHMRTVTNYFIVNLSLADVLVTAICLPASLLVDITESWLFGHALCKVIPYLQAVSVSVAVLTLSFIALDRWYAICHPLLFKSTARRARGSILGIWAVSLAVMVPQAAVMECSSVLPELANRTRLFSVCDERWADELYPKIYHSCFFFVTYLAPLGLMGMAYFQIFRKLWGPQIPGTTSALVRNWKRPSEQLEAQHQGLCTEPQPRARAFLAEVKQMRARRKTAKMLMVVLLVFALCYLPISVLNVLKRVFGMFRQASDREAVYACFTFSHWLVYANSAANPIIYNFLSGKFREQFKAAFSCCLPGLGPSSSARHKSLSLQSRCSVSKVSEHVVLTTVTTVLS
UniProt P56719, whole entry: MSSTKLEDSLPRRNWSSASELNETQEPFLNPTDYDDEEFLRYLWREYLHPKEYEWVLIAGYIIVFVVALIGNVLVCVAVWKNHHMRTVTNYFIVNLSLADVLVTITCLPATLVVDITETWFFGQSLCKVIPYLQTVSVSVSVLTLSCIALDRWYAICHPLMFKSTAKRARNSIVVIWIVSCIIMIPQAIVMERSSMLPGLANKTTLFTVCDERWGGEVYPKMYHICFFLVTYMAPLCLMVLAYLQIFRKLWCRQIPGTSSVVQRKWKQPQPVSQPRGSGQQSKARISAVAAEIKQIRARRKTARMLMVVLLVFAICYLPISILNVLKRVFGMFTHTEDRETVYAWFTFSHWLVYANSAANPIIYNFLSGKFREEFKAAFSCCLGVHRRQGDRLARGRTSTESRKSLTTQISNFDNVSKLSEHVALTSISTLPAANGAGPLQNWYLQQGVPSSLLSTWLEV

For test [1], the target named is T1, human OX1 receptors (Homo sapiens, UniProt O43613). Briefly: Radioligand binding, [125I]-Orexin A displacement, HEK293 membranes.
Test [2] addresses T1, human OX1 receptors. Briefly: Intracellular calcium mobilization (FLIPR), antagonist mode vs EC70 orexin-A.
Test [3] concerns the target rat OX1 receptors (Rattus norvegicus, UniProt P56718). Kind of test: cell-based.
For test [4], the target named is rat OX2 receptors (Rattus norvegicus, UniProt P56719). Kind of test: cell-based.

Where two headings read alike, the source gives them in different places.

`CNC(=O)[C@@H](c1ccccc1)N1CCc2cc(OC)c(OC)cc2[C@@H]1CCc1ccc(C(F)(F)F)cc1` [Almorexant (S)] yielded a Ki in test [1] of 21 ± 3.2 nM. Besides, in test [2], the Kb was 2.32 ± 0.18 nM.

`Cc1nc2ccc(NC(=O)Nc3ccnc4cccnc34)cc2o1` [SB334867]: the Kb in test [3] is 7.1 ± 0.71 nM; in test [4] it was over 10000 nM.

Regarding `CNC(=O)[C@@H](c1ccccc1)N1CCc2cc(OC)c(OC)cc2[C@@H]1CCc1ccc(C(F)(F)F)cc1` [Almorexant (R)], the Ki in test [1] (read-out: Receptor binding affinity, Ki OX1, HEK293 membranes, [125I]-orexin A, 90 min, mean ± s.e.m. (n)) was over 10000 nM. Besides, the Kb in test [2] (read-out: Functional antagonist activity, Kb hOX1, HEK293 cells, calcium mobilization, EC70 orexin-A, mean ± s.e.m. (n)) is over 10000 nM.
